Experimental data from US20090208493A1, “Compounds and methods for the selective inhibition of ABCB1, ABCC1 and ABCG2 transporters and the treatment of cancers, especially drug resistant cancers and high throughput flow cytometry assay to detect selective inhibitors” (STC. UNM, priority 2007, published 2009).
Structures can show the parent of a compound that is named as a salt.

Protein sequences, listed by entry. Tags and fused reporters are not part of them.
UniProt P08183, whole entry: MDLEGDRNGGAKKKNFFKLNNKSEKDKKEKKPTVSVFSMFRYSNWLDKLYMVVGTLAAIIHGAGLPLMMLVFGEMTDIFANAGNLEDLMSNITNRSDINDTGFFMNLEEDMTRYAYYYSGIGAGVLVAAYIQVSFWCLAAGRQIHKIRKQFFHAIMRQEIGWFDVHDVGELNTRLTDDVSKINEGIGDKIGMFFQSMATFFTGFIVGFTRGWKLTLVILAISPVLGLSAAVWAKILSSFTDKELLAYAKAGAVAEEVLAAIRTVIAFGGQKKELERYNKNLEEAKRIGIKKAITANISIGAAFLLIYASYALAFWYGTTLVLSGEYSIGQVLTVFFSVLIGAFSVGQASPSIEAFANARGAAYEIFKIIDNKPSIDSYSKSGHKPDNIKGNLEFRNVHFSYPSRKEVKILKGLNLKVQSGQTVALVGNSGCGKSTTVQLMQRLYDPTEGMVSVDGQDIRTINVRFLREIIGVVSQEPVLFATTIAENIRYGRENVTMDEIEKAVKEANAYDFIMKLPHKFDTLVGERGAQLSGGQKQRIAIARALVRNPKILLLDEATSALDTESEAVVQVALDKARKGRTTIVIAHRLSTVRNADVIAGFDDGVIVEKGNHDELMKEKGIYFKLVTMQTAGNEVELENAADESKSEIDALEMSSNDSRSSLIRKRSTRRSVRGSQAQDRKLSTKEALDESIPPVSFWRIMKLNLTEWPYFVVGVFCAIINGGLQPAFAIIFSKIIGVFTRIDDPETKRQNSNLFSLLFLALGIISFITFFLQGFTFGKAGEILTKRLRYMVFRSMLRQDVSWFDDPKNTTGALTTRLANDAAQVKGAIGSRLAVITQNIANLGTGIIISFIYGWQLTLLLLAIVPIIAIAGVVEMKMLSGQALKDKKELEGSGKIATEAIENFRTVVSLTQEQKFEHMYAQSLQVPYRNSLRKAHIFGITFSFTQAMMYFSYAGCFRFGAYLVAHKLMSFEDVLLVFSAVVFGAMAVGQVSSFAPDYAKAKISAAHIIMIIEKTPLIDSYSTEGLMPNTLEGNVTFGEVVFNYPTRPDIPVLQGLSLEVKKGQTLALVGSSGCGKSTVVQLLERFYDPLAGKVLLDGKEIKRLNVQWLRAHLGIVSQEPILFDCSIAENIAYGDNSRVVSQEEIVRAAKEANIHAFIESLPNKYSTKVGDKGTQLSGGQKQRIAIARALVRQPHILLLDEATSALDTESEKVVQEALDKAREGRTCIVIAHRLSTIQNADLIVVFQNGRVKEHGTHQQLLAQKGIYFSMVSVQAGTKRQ

Target: ABCB1 (Homo sapiens, UniProt P08183)
Assay: JC-1 efflux HyperCyt flow cytometry assay (ABCB1 reversal)

How did the IC50 turn out when COC(=O)C1=C(C)NC(C)=C(C(=O)OCCN(C)Cc2ccccc2)C1c1cccc([N+](=O)[O-])c1 (stereo not shown) [Nicardipine HCL, nicardipine] was run?
The IC50 was 760 ± 180 nM.
